Measured values taken from patent US9115083B2 (Simpson Biotech Co., Ltd, priority 2011, dated 2015).
≈ marks a conversion by molar mass, not a printed value. Where “and” joins values, the source holds several entries; their conditions need not be identical. Identical values can stand only once.

Amino acid sequences for entries named in this document (tags omitted).
UniProt P27487, whole entry: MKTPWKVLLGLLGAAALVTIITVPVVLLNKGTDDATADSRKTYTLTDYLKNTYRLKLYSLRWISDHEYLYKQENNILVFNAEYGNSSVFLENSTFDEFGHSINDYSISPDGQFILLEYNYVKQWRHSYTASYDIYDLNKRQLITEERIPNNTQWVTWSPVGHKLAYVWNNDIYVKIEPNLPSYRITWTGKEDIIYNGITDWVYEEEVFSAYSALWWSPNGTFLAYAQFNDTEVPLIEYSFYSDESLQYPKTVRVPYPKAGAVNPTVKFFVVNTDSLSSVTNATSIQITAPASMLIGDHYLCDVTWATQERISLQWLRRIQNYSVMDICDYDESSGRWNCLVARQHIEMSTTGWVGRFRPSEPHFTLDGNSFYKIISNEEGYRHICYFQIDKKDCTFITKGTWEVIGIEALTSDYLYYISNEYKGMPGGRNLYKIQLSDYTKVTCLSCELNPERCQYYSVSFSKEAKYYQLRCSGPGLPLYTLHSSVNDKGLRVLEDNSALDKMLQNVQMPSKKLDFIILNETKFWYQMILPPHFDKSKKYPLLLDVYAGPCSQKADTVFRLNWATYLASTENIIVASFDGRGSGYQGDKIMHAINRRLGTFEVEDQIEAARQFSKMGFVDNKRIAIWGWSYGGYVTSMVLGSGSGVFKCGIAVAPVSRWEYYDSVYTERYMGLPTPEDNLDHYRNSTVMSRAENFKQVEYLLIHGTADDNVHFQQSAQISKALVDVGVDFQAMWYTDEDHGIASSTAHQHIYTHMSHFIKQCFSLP

The compounds below were run against dipeptidyl peptidase-IV (DPPIV) (Homo sapiens (Human), UniProt P27487) (assay: dipeptidyl peptidase-IV (DPPIV) assay). Conditions: Table 10, first scaffold.
Type: biochemical
Description: In addition, the dipeptidyl peptidase-IV (DPPIV) assay herein was applied to investigate the DPPIV inhibitory activity of the prepared compounds as described above. The method of the DPPIV assay was described in Lin et al., 1998. Inhibition of dipeptidyl peptidase IV by fluoroolefin-containing N-peptidyl-O-hydroxylamine peptidomimetics. Proc. Natl. Acad. Sci. USA Vol. 95, pp. 14020-14024.

Row | Compound | IC50 against DPPIV
1 | CC(C)=CCOc1ccc(C2=C(CC(C)C)C(=O)N(C(CC(C)C)C(=O)N3CCC[C@H]3C(=O)OC(C)(C)C)C2=O)cc1 (stereo partly shown) | 60 µg/mL (≈ 103 µM)
2 | CC(C)=CCOc1ccc(C2=C(CC(C)C)C(=O)N(C(CO)C(=O)N3CCC[C@H]3C(=O)OC(C)(C)C)C2=O)cc1 (stereo partly shown) | 55 µg/mL (≈ 99.2 µM)
3 | COC(=O)[C@@H]1CCCN1C(=O)C(Cc1ccccc1)N1C(=O)C(CC(C)C)=C(c2ccc(OCC=C(C)C)cc2)C1=O (stereo partly shown) | 89.0 µg/mL and 70 µg/mL
4 | CC(C)=CCOc1ccc(C2=C(CC(C)C)C(=O)N(C(Cc3ccccc3)C(=O)N3CCC[C@H]3C(=O)OC(C)(C)C)C2=O)cc1 (stereo partly shown) | 84 µg/mL (≈ 137 µM)
